Patent EP1903056A2, “HLA-A1, -A2 -A3, -A24, -B7, and -B44 tumor associated antigen peptides and compositions” (priority 2002, dated 2004)

Amino acid sequences for entries named in this document (tags omitted). A change or cut given only in a name is not applied to a line headed by its entry.
UniProt P01889: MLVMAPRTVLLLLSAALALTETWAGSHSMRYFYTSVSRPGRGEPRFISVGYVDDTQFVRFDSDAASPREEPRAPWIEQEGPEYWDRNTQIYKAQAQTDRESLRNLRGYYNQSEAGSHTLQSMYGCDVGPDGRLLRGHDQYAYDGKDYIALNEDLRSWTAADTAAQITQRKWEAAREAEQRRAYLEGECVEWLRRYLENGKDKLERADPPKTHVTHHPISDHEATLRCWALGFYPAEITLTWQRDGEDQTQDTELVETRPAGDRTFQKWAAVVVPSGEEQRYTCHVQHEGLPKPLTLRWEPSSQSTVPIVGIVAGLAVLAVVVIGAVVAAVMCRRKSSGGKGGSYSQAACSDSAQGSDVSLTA

Legend:
[1] = molecular target: B*4501 (Homo sapiens, UniProt P01889, A329T/A65T/A93T/A95T/C349S/D138N/D201E/D98Y/E176V/E187L/E204Q/E69K/H137Y/K202T/L119W/N87E/Q56L/Q94N/R155S/R180D/S121R/S35A/S48T/V127L/V306I/V36M/W191S/Y140L/Y33H/Y91S); test: B44 supertype peptide binding, B*4501; details: read-out: B* 4501
[2] = molecular target: B*4402 (Homo sapiens, UniProt P01889, A223V/A65T/A93T/A95T/D201E/D98Y/E176V/E187L/E204Q/E69K/G107R/H137Y/K202T/L105A/L119I/N104T/N87E/Q56L/Q94N/R106L/R155S/R180D/S101N/S121R/S35A/S48T/T118I/V36M/W191S/Y140D/Y91S); test: B44 supertype peptide binding, B*4402
[3] = molecular target: B*4001(B60) (Homo sapiens, UniProt P01889, A65T/A93T/A95T/D138N/D98Y/E176V/E69K/N87E/Q56L/Q94N/R180L/S121R/S35A/S48T/T167S/V36M/W171L/Y33H/Y91S); test: B44 supertype peptide binding, B*4001; details: read-out: B* 4001
[4] = CEA-derived B44 peptides, binding affinity, unit inferred
[5] = CEA-derived B44 peptides, binding affinity, unit inferred, read-out: B* 4402
[6] = HER 2/neu-derived B44 peptides, Table 27
[7] = HER 2/neu-derived B44 peptides, Table 27, read-out: B* 4402
[8] = Table 29: MAGE2-derived B44 peptides
[9] = Table 29: MAGE2-derived B44 peptides, read-out: B* 4402

## CC(C)[C@H](N)C(=O)N[C@@H](CCC(=O)O)C(=O)N[C@@H](CC(=O)O)C(=O)N[C@@H](CCCCN)C(=O)N[C@@H](CC(=O)O)C(=O)N[C@@H](C)C(=O)N[C@H](C(=O)N[C@@H](C)C(=O)N[C@@H](Cc1ccccc1)C(=O)O)C(C)C [compound 398]
[1]; [4]
  IC50: > 10000 nM
[2]; [5]
  IC50: 963 nM

## CC(C)C[C@H](NC(=O)[C@H](C)NC(=O)[C@@H](NC(=O)[C@H](C)NC(=O)[C@H](CC(=O)O)NC(=O)[C@H](CCC(=O)O)NC(=O)[C@H](CC(=O)O)NC(=O)[C@H](CCC(=O)O)NC(=O)[C@@H](N)C(C)C)C(C)C)C(=O)O [compound 400]
[1]; [4]
  IC50: > 10000 nM

## CC[C@H](C)[C@H](NC(=O)[C@H](CO)NC(=O)[C@@H]1CCCN1C(=O)[C@H](CCCCN)NC(=O)[C@@H]1CCCN1C(=O)[C@H](CC(C)C)NC(=O)[C@H](CCC(=O)O)NC(=O)[C@H](C)N)C(=O)O [compound 403]
[2]; [5]
  IC50: 959 nM

## C[C@H](NC(=O)[C@H](CCC(=O)O)NC(=O)[C@@H]1CCCN1)C(=O)N[C@@H](CCC(N)=O)C(=O)N[C@@H](CC(N)=O)C(=O)N[C@H](C(=O)N[C@H](C(=O)N[C@@H](Cc1ccc(O)cc1)C(=O)O)[C@@H](C)O)[C@@H](C)O [compound 404]
[2]; [5]
  IC50: > 10000 nM

## CC[C@H](C)[C@H](NC(=O)[C@H](CCC(=O)O)NC(=O)[C@@H](N)CCCCN)C(=O)N[C@@H](CC(C)C)C(=O)N[C@@H](CC(=O)O)C(=O)N[C@@H](CCC(=O)O)C(=O)N[C@@H](C)C(=O)N[C@@H](Cc1ccc(O)cc1)C(=O)N[C@H](C(=O)N[C@@H](CCSC)C(=O)O)C(C)C [compound 436]
[1]; [6]
  IC50: 234 nM
[2]; [7]
  IC50: 35 nM

## CC(C)C[C@H](NC(=O)CNC(=O)[C@H](CC(C)C)NC(=O)[C@H](Cc1ccc(O)cc1)NC(=O)[C@H](CCC(=O)O)NC(=O)[C@@H]1CCCN1C(=O)[C@H](CC(N)=O)NC(=O)[C@H](CCC(=O)O)NC(=O)[C@H](C)N)C(=O)O [compound 439]
[3]; [6]
  IC50: 2.2 nM
[2]; [7]
  IC50: 45 nM

## CC[C@H](C)[C@H](NC(=O)[C@H](CCCCN)NC(=O)[C@H](CCCCN)NC(=O)[C@H](CS)NC(=O)CNC(=O)[C@H](C)NC(=O)[C@H](Cc1ccccc1)NC(=O)[C@H](CCC(=O)O)NC(=O)[C@@H](N)CCC(N)=O)C(=O)N[C@@H](Cc1ccccc1)C(=O)NCC(=O)O [compound 441]
[3]; [6]
  IC50: 423 nM

## CC(C)C[C@H](NC(=O)[C@H](C)NC(=O)[C@H](CC(C)C)NC(=O)CNC(=O)[C@H](CO)NC(=O)CNC(=O)[C@H](CC(C)C)NC(=O)[C@H](CCC(=O)O)NC(=O)[C@@H](N)CCCNC(=N)N)C(=O)O [compound 456]
[2]; [7]
  IC50: 473 nM

## CC[C@H](C)[C@H](NC(=O)[C@H](CC(C)C)NC(=O)[C@H](C)NC(=O)[C@H](CC(C)C)NC(=O)CNC(=O)[C@H](CO)NC(=O)CNC(=O)[C@H](CC(C)C)NC(=O)[C@H](CCC(=O)O)NC(=O)[C@@H](N)CCCNC(=N)N)C(=O)O [compound 457]
[1]; [6]
  IC50: 324 nM

## CC(C)C[C@H](NC(=O)[C@@H]1CCCN1C(=O)[C@H](CCC(=O)O)NC(=O)[C@@H](NC(=O)[C@H](CC(C)C)NC(=O)[C@H](CCC(=O)O)NC(=O)[C@@H](NC(=O)[C@H](CCC(=O)O)NC(=O)[C@@H](N)CCC(N)=O)[C@@H](C)O)C(C)C)C(=O)O [compound 462]
[1]; [6]
  IC50: 1230 nM

## CC[C@H](C)[C@H](NC(=O)[C@H](CCC(=O)O)NC(=O)[C@@H](N)[C@@H](C)O)C(=O)N[C@@H](CC(C)C)C(=O)N[C@@H](CCCCN)C(=O)NCC(=O)NCC(=O)N[C@H](C(=O)N[C@@H](CC(C)C)C(=O)O)C(C)C [compound 476]
[1]; [6]
  IC50: 2480 nM

## CC(C)C[C@H](NC(=O)[C@H](CO)NC(=O)[C@H](CCC(N)=O)NC(=O)[C@H](CS)NC(=O)[C@H](CC(=O)O)NC(=O)[C@H](CCC(=O)O)NC(=O)[C@H](CO)NC(=O)[C@H](CO)NC(=O)[C@H](CCC(=O)O)NC(=O)CN)C(=O)O [compound 478]
[1]; [6]
  IC50: 2490 nM

## CC(C)[C@H](NC(=O)[C@H](C)NC(=O)[C@H](CCCNC(=N)N)NC(=O)[C@@H](NC(=O)[C@H](CCC(=O)O)NC(=O)[C@@H](N)CCCNC(=N)N)C(C)C)C(=O)N[C@H](C(=O)N[C@@H](CO)C(=O)N[C@@H](C)C(=O)O)[C@@H](C)O [compound 481]
[2]; [7]
  IC50: 3160 nM

## CC(C)C[C@H](NC(=O)[C@@H]1CCCN1C(=O)CNC(=O)[C@H](CCC(=O)O)NC(=O)[C@@H](N)CCCNC(=N)N)C(=O)N1CCC[C@H]1C(=O)N[C@@H](C)C(=O)N[C@@H](C)C(=O)N[C@@H](CCCNC(=N)N)C(=O)N1CCC[C@H]1C(=O)N[C@@H](C)C(=O)O [compound 500]
[1]; [6]
  IC50: 347 nM

## CC[C@H](C)[C@H](NC(=O)[C@H](CCC(=O)O)NC(=O)[C@@H](NC(=O)[C@H](CC(C)C)NC(=O)[C@H](CO)NC(=O)[C@H](CCCNC(=N)N)NC(=O)[C@H](CC(C)C)NC(=O)[C@H](CCC(N)=O)NC(=O)[C@H](CC(C)C)NC(=O)[C@H](CCC(=O)O)NC(=O)[C@@H](N)CCCNC(=N)N)[C@@H](C)O)C(=O)N[C@@H](CC(C)C)C(=O)O [compound 501]
[1]; [6]
  IC50: 865 nM

## CC(C)C[C@H](NC(=O)[C@H](CO)NC(=O)[C@H](CCC(N)=O)NC(=O)[C@H](CS)NC(=O)[C@H](CC(=O)O)NC(=O)[C@H](CCC(=O)O)NC(=O)[C@H](CO)NC(=O)[C@H](CO)NC(=O)[C@H](CCC(=O)O)NC(=O)CN)C(=O)N[C@H](C(=O)O)[C@@H](C)O [compound 502]
[2]; [7]
  IC50: 14400 nM

## CC(C)C[C@H](NC(=O)[C@H](C)NC(=O)[C@@H]1CCCN1C(=O)[C@H](CS)NC(=O)[C@H](Cc1c[nH]cn1)NC(=O)[C@H](CC(C)C)NC(=O)[C@H](CCC(=O)O)NC(=O)[C@@H](N)CS)C(=O)N[C@H](C(=O)N[C@H](C(=O)O)[C@@H](C)O)C(C)C [compound 505]
[1]; [6]
  IC50: 1270 nM
[2]
  IC50: 933 nM

## CC[C@H](C)[C@H](NC(=O)[C@@H]1CCCN1C(=O)[C@@H]1CCCN1C(=O)[C@H](CCC(N)=O)NC(=O)[C@@H]1CCCN1C(=O)[C@H](CC(C)C)NC(=O)[C@H](CCCNC(=N)N)NC(=O)[C@H](CCC(=O)O)NC(=O)CN)C(=O)N[C@@H](CS)C(=O)N[C@H](C(=O)O)[C@@H](C)O [compound 521]
[2]; [7]
  IC50: 9090 nM

## CC(C)C[C@H](NC(=O)[C@H](CCC(=O)O)NC(=O)[C@H](CCCNC(=N)N)NC(=O)[C@H](Cc1ccccc1)NC(=O)[C@H](CCCNC(=N)N)NC(=O)[C@@H]1CCCN1C(=O)[C@H](CCCNC(=N)N)NC(=O)[C@H](CS)NC(=O)[C@H](CCC(=O)O)NC(=O)[C@@H](N)CO)C(=O)N[C@H](C(=O)O)C(C)C [compound 522]
[3]; [6]
  IC50: 3670 nM
[2]; [7]
  IC50: 927 nM

## CC[C@H](C)[C@H](NC(=O)[C@H](CCC(=O)O)NC(=O)[C@H](CCC(=O)O)NC(=O)[C@@H](N)CC(C)C)C(=O)N[C@H](C(=O)NCC(=O)N[C@@H](Cc1ccc(O)cc1)C(=O)N[C@@H](CC(C)C)C(=O)O)[C@@H](C)O [compound 527]
[2]; [7]
  IC50: 8040 nM

## CC(C)C[C@H](NC(=O)[C@@H]1CCCN1C(=O)[C@H](CCC(=O)O)NC(=O)[C@@H](NC(=O)[C@H](CC(C)C)NC(=O)[C@H](CCC(=O)O)NC(=O)[C@@H](N)[C@@H](C)O)C(C)C)C(=O)O [compound 529]
[3]; [6]
  IC50: 14200 nM
[2]; [7]
  IC50: 8850 nM

## CC(C)C[C@H](NC(=O)[C@H](Cc1ccc(O)cc1)NC(=O)[C@H](CCC(=O)O)NC(=O)[C@@H](N)CO)C(=O)N[C@@H](CCC(N)=O)C(=O)N[C@@H](CC(C)C)C(=O)N[C@H](C(=O)N[C@@H](Cc1ccccc1)C(=O)NCC(=O)O)C(C)C [compound 649]
[3]; [8]
  IC50: 235 nM
[2]; [9]
  IC50: 348 nM

## CSCC[C@H](NC(=O)[C@H](CCCNC(=N)N)NC(=O)[C@@H]1CCCN1C(=O)CNC(=O)[C@H](CCC(=O)O)NC(=O)[C@@H](N)CCC(=O)O)C(=O)N[C@@H](Cc1ccccc1)C(=O)N1CCC[C@H]1C(=O)N[C@@H](CC(=O)O)C(=O)N[C@@H](CC(C)C)C(=O)O [compound 657]
[2]; [9]
  IC50: 291 nM

## CC(C)C[C@H](NC(=O)[C@@H](NC(=O)[C@H](CO)NC(=O)[C@H](CO)NC(=O)[C@H](CO)NC(=O)[C@H](CO)NC(=O)[C@H](C)NC(=O)[C@@H](NC(=O)[C@H](CCC(N)=O)NC(=O)[C@H](CCC(N)=O)NC(=O)[C@H](CCC(=O)O)NC(=O)[C@@H](N)CCC(=O)O)[C@@H](C)O)[C@@H](C)O)C(=O)O [compound 686]
[3]; [8]
  IC50: 301 nM

## CC[C@H](C)[C@H](NC(=O)[C@@H]1CCCN1C(=O)[C@@H](NC(=O)[C@@H](NC(=O)[C@H](CCC(=O)O)NC(=O)[C@@H](N)C(C)C)C(C)C)C(C)C)C(=O)N[C@@H](CO)C(=O)N[C@@H](Cc1c[nH]cn1)C(=O)N[C@@H](CC(C)C)C(=O)N[C@@H](Cc1ccc(O)cc1)C(=O)O [compound 692]
[1]; [8]
  IC50: 6780 nM

## CC(C)[C@H](NC(=O)[C@H](CO)NC(=O)[C@H](CC(=O)O)NC(=O)[C@H](CCC(=O)O)NC(=O)[C@H](CCCNC(=N)N)NC(=O)CNC(=O)[C@H](CCC(=O)O)NC(=O)[C@@H](N)Cc1ccccc1)C(=O)N[C@@H](Cc1ccccc1)C(=O)O [compound 693]
[2]; [9]
  IC50: 4430 nM

## CC(C)C[C@H](NC(=O)[C@@H](NC(=O)[C@@H](NC(=O)[C@H](CCC(=O)O)NC(=O)[C@@H](N)C(C)C)C(C)C)[C@@H](C)O)C(=O)NCC(=O)N[C@@H](CCC(=O)O)C(=O)N[C@H](C(=O)N1CCC[C@H]1C(=O)N[C@@H](C)C(=O)N[C@@H](C)C(=O)O)C(C)C [compound 696]
[3]; [8]
  IC50: > 10000 nM
[2]; [9]
  IC50: > 10000 nM

Where two headings read alike, the source gives them in different places.
